Assay results reported in patent US20260201076A1, “CONJUGATES OF POLYSACCHARIDES AND HYDROPHOBIC COMPOUNDS AS EMULSION STABILIZERS” (BASF SE, priority 2022, published 2026).
Where two headings read alike, the source gives them in different places.

[1] = sandy soil Lihof C15, ISO 17556, after 28 days
[2] = sandy soil Lihof C15, ISO 17556, after 90 days

Substance | biodegradation [1] [%] | biodegradation [2] [%]
dextran-graft-Citropol [Example 7] | 59 | 75
dextran-graft-menthol [Example 6] | 72 | 85
